# Values quoted from earlier work as cited in patent US20100113605A1 (priority 2007, published 2010).
# The chains behind the UniProt entries cited, without tags or fusion partners. Residues count along the entry.
# UniProt Q9WTR4, 1-597: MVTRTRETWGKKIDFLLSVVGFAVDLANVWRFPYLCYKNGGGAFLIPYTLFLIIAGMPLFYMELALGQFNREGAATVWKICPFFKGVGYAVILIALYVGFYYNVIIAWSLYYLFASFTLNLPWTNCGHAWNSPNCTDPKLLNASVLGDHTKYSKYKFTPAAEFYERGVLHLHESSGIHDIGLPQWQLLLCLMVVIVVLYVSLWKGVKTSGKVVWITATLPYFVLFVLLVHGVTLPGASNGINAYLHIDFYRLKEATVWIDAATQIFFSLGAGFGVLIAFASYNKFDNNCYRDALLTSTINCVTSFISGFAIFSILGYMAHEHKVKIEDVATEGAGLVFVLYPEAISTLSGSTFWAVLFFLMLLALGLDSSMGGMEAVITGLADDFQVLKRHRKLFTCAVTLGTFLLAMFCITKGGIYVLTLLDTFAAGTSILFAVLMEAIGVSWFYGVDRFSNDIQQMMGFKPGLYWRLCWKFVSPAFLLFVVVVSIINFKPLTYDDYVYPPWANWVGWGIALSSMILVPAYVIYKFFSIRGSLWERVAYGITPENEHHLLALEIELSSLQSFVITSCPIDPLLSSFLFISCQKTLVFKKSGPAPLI
# UniProt P31652, whole entry: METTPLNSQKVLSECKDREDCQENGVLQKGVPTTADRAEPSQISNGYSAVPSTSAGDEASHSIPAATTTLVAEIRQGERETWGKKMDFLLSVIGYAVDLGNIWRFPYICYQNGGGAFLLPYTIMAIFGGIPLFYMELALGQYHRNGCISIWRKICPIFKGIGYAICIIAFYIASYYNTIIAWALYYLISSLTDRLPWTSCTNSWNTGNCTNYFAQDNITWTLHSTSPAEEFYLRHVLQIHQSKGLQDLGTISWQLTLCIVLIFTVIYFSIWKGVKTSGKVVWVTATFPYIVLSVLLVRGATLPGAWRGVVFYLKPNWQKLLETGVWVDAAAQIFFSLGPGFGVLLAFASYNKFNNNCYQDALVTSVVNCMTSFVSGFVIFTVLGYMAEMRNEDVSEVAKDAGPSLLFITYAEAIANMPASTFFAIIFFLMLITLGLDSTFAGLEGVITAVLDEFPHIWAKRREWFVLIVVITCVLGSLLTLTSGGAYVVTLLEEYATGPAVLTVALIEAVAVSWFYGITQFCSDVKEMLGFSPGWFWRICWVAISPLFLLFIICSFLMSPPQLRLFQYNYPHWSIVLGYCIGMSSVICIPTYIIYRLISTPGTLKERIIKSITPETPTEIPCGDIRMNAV
# pKi: −log10 of the molar value. Where two headings read alike, the source gives them in different places.
# What was measured:
# NET = molecular target: T1, NET (Rattus norvegicus, UniProt Q9WTR4); conditions: read-out: [^3H]Monoamine reuptake inhibition into rat brain synaptosomes, Noradrenaline (Ki)
# T1 construct: from tissue; host or cells: rat brain synaptosomes
# SERT = molecular target: T2, SERT (Rattus norvegicus, UniProt P31652); conditions: read-out: [^3H]Monoamine reuptake inhibition into rat brain synaptosomes, 5-HT (Ki)
# T2 construct: from tissue; host or cells: rat brain synaptosomes
structure (smiles),measurement,setting,value
"COC(=O)[C@H]1[C@@H](OC(=O)c2ccccc2)C[C@@H]2CC[C@H]1N2C [Cocaine, cocaine]",pKi,NET; Hyttel (1982),6.66
same,pKi,NET; Richelson & Pfenning (1984),6.81
same,pKi,SERT; Hyttel (1982),6.59
same,pKi,SERT; Richelson & Pfenning (1984),6.74
